Measurements: paper PMC9408879

What was measured:
[1] = target: Alexa488-labeled human gelsolin (human) (UniProt P06396); assay: Alexa488 fluorescence emission change on sequential additions; 0.5 uM Alexa488-labeled protein (p53, JMY or GSN); 1 uM actin, then 0.5 uM of the other proteins added one after another; no polymerizing salts; 1 mM Ca2+
[2] = target: Alexa488-labeled mouse JMY (mouse) (UniProt Q9QXM1); assay: as above
[3] = target: Alexa488-labeled human gelsolin (human) (UniProt P06396); assay: fluorescence polarisation; steady-state anisotropy of 0.2 uM Alexa488-GSN under polymerizing conditions (100 mM KCl, 1 mM MgCl2), millimolar Ca2+; 0.1 uM p53, 0.2 uM JMY and 2 uM filamentous actin added
[4] = target: Alexa488-labeled human p53 (human) (UniProt P04637); assay: Alexa488 fluorescence emission change on sequential additions; 0.5 uM Alexa488-labeled protein (p53, JMY or GSN); 1 uM actin, then 0.5 uM of the other proteins added one after another; no polymerizing salts; 1 mM Ca2+

Row | decrease of GSNAlexa488 emission [1] [%] | decrease of JMYAlexa488 emission [2] [%] | steady-state anisotropy of Alexa488-GSN [3] | decrease of p53Alexa488 emission [4] [%] | Substance
1 | 13 | 11 | 0.138 |  | rabbit skeletal muscle actin (from UniProt P68135 1-377) (natural protein)
2 |  |  |  | 3 | rabbit skeletal muscle actin (from UniProt P68135 1-377) (natural protein; other documents disagree on this pair)
